Data set [1] can be described thus: Protease resistance with RINm5F cell membrane extracts (LC-MS). Format: in vitro ADME. As to conditions: 30 μM, 37° C., 6 hr.
Data set [2] in a line: Stability in human plasma (LC/MS/MS). It is filed as in vitro ADME.
Data set [3] can be described thus: Solubility at various pHs. It is filed as physicochemical.
A further data set deals with T1, human GIP receptor (Homo sapiens, UniProt P48546).
T1 construct: expressed in transfected cells; host or cells: HEK293 (HEK-GIPR), membranes
T1 sequence (P48546 22-466): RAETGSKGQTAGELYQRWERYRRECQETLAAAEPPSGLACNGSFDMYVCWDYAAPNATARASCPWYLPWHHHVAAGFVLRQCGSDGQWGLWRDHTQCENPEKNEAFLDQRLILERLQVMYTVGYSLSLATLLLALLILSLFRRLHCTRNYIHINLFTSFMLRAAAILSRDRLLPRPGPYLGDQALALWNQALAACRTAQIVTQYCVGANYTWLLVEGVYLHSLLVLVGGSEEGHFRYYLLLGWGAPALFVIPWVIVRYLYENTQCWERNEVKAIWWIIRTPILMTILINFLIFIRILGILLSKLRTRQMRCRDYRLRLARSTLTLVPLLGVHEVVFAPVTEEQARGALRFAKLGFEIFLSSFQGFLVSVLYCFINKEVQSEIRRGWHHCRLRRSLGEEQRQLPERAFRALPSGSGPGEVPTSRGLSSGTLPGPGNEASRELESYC
Format: binding. As to conditions: HEK-GIPR; read-out: GIP RBA, IC50 in HEK-GIPR.

For a further data set, the target named is T2, GIP Receptor (Rattus norvegicus, UniProt P43219).
T2 construct: endogenous in cells; host or cells: RIN cells
T2 sequence (P43219 19-455): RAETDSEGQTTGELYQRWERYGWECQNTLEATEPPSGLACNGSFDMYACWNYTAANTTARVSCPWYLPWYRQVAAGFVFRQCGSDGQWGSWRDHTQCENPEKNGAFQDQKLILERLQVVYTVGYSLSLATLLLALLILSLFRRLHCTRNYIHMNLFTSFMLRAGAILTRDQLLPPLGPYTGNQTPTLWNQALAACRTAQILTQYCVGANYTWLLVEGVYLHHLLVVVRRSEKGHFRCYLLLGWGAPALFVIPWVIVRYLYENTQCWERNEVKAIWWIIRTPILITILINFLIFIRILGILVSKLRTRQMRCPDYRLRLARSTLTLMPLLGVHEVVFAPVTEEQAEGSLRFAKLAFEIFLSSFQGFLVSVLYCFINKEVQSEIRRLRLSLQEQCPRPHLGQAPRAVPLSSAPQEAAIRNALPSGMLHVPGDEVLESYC
Briefly: GIP receptor binding (GIP RBA) in RIN cells.

Where “and” joins values, the source holds several entries; their conditions need not be identical. Equal entries are not always repeated.

On to “Y(D-Ala)EGTFISDYSIAMDKIHQQDFVNWLLAQKPSSGAPPPS-NH2 [Compound 0601GIP3794]”, for which the “protease resistance (parent peptide remaining)” value in data set [1] was “superior protease resistance”; in data set [1] (listed as Compound G), “more stable than its parent molecule GIP(1-30) without the shield or the full length GIP(1-42)”. The “stability compared with exendin-4” value in data set [2] is listed as “at least as stable or more stable than exendin-4”. Moreover, in data set [3], the Solubility – broadly, the dissolved amount per volume that the medium holds – is below 1000 µg/mL. Besides, the “pH ranges of solubility and physical/chemical stability” value in data set [3] is “solubility and physical/chemical stability are at different ranges of pH”.
Consider “[dAla2, Leu14, Ala18, glu21] GIP-(1-30)-Exendin-4 (31-39) [Compound 0601GIP4285]”, for which the IC50 – broadly, the midpoint of a concentration-inhibition curve – on human GIP receptor is 0.11 nM and 0.22 nM. The substance also had a Solubility in data set [3] below 1000 µg/mL.
Turning to “[dAla2, Leu14, beta-Ala31, beta-Ala32] GIP-(1-32)-Exendin-4 (31-39) [Compound 0601GIP4179]”, the IC50 at GIP Receptor stood at 3.3 nM.

These data come from patent publication US8497240B2 (priority 2006, dated 2013).
